# Measured affinities in a library of Ab-14 light chain variants

Source: Li et al. 2023 (doi:10.1038/s41467-023-39022-2), MIT Lincoln Laboratory and A-Alpha Bio; data file from the FLAb repository.

Target: peptide PDVDLGDISGINAS, taken from heptad repeat 2 (HR2) of SARS-CoV-2 spike.

Parent: Ab-14, a human scFv built as VH, the linker GGGGSGGGGSGGGGS, VL. Only the CDRs of the light chain vary.
VH: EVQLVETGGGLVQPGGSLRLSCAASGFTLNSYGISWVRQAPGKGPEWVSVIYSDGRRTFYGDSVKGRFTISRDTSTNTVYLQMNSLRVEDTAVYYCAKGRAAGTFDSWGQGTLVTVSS
VL: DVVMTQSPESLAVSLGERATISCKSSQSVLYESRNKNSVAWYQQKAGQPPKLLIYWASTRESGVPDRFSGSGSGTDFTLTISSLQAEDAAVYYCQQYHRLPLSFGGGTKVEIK

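The starting antibody came from a phage panning campaign against this peptide. This is the validation round: designs drawn from the data on random variants, tested in the same kind of assay. Their group label is 14L_Ctrl (Ctrl: baseline library sampled from a position-specific scoring matrix, with some repeated check sequences). The scFvs were displayed on barcoded MATa yeast, the peptide on MATalpha yeast. Mating (16 h, 30 °C) was followed by selection of diploids and sequencing of their barcodes. Scores were corrected for input abundance and mapped to Kd with protein pairs of known affinity run in the same pool. Mating was done six times.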

Substitutions are numbered in sequence along the VL above, starting at 1 (not Kabat). The read-out is the apparent dissociation constant on a log10 scale (nM): the lower, the stronger. Averages over replicates are reported, and they cover detected replicates only. Where no diploid with the target was found in that replicate, the entry reads "n.d.": below detection, most likely a poor binder, though not proof of it. The authors averaged sequences with at least three values out of six and counted those with two or fewer as poor binders. The range of this assay differs from that of the first round, and the authors advise against merging the two. Empty control strains, which show no peptide, gave a signal in 4% of pairings with all light chain designs; the median was 2.64 and 95% of these signals were weaker than 1.59. No background was subtracted. For each scFv, signals with the empty controls are counted beside the result, with their mean in brackets. The parent sequence was in this pool as ten entries: three were never detected, three once, and four in most replicates, with averages from 0.34 to 2.37.

| # | changes | replicates, log10 nM | mean, log10 nM | signal with controls |
|---|---|---|---|---|
| 1 | Y31M+W56S+E61S+L100Y | 3.13 / 1.94 / 3.16 / n.d. / 2.60 / n.d. | 2.71 | 2/18 (3.47) |
| 2 | S28G+L30G+S38M | n.d. / n.d. / n.d. / n.d. / n.d. / n.d. | n.d. | 1/18 (1.90) |
| 3 | Y31P+W56G | -0.11 / -0.10 / -0.17 / 0.03 / 0.04 / 0.30 | 0.00 | 1/18 (1.51) |
| 4 | V29C+V39L+W56D+T59C | 1.08 / 1.65 / 0.81 / 0.82 / 1.52 / 1.09 | 1.16 | 3/18 (2.37) |
| 5 | S25Q+Q27H+V29L | 1.40 / n.d. / n.d. / 2.41 / n.d. / 1.40 | 1.74 | 0/18 |
| 6 | Y31H+E32D+Q96L | n.d. / n.d. / n.d. / n.d. / n.d. / n.d. | n.d. | 1/18 (1.69) |
| 7 | W56H+T59Q+L100H | 1.80 / 1.63 / 1.50 / 1.67 / 0.92 / 0.99 | 1.42 | 0/18 |
| 8 | S26G+K36L+W56A | 0.72 / 0.91 / 0.68 / 0.35 / 0.45 / 0.82 | 0.65 | 2/18 (3.66) |
| 9 | L30V+W56S+S103I | 1.10 / 0.65 / 1.12 / 0.59 / 0.78 / 0.82 | 0.84 | 1/18 (3.10) |
| 10 | N35A+P101D | n.d. / n.d. / n.d. / 2.21 / 2.26 / n.d. | 2.24 | 0/18 |
| 11 | S25F+N35E | n.d. / n.d. / n.d. / n.d. / n.d. / n.d. | n.d. | 0/18 |
| 12 | S25F+Q27T+S33W+K36M+R99G | n.d. / 3.17 / n.d. / n.d. / 2.66 / n.d. | 2.91 | 0/18 |
| 13 | K36Q+V39I | 2.12 / 1.43 / 2.20 / 2.38 / 2.13 / 1.74 | 2.00 | 0/18 |
| 14 | N35M+E61S | 2.12 / 2.12 / 1.85 / 2.04 / 1.63 / 1.72 | 1.91 | 1/18 (2.85) |
| 15 | K36S+W56S+S62D+Q95F | n.d. / n.d. / 1.97 / n.d. / n.d. / n.d. | 1.97 | 0/18 |
| 16 | L30Y+W56N+R99G | n.d. / 3.05 / 1.96 / n.d. / 1.80 / 3.13 | 2.48 | 1/18 (4.05) |
| 17 | V29Q+Q96N+L100P | n.d. / 0.58 / 1.37 / 1.19 / 2.56 / n.d. | 1.43 | 0/18 |
| 18 | R34A+P101F | n.d. / n.d. / n.d. / n.d. / n.d. / n.d. | n.d. | 0/18 |
| 19 | R34S+R60N | n.d. / n.d. / n.d. / n.d. / n.d. / n.d. | n.d. | 1/18 (1.87) |
| 20 | S26D+V29W+K36L+L102N | n.d. / n.d. / n.d. / n.d. / n.d. / n.d. | n.d. | 0/18 |
| 21 | T59I+E61F+H98A | n.d. / n.d. / n.d. / n.d. / n.d. / n.d. | n.d. | 1/18 (1.55) |
| 22 | K24W+S25T+E32Q+N37G+W56Q+R99N | n.d. / 1.57 / 3.33 / 2.29 / 2.37 / 1.82 | 2.28 | 0/18 |
| 23 | S28K+S62A+Q96W+H98W | n.d. / n.d. / n.d. / n.d. / n.d. / n.d. | n.d. | 0/18 |
| 24 | V39M | n.d. / 1.81 / 1.82 / 1.60 / 1.67 / 1.69 | 1.72 | 0/18 |
| 25 | S25F+K36V+A57V+E61F+Q96G | n.d. / n.d. / n.d. / n.d. / n.d. / n.d. | n.d. | 1/18 (0.99) |
| 26 | R34P+W56E | 0.81 / 0.61 / 0.29 / 0.56 / 0.62 / 0.48 | 0.56 | 0/18 |
| 27 | W56T+H98C | 1.12 / 1.74 / 1.48 / n.d. / 1.37 / n.d. | 1.42 | 1/18 (1.60) |
| 28 | S25L+R34H+W56Q+R99H | 0.13 / 0.09 / 0.04 / -0.13 / -0.11 / 0.21 | 0.04 | 1/18 (2.76) |
| 29 | Y31D+R34E+P101L | n.d. / n.d. / n.d. / n.d. / n.d. / n.d. | n.d. | 0/18 |
| 30 | S25I+H98A | 0.51 / 0.72 / 0.94 / 0.35 / 0.88 / 0.85 | 0.71 | 1/18 (2.14) |
| 31 | Q27T+P101F | n.d. / n.d. / n.d. / 1.74 / n.d. / n.d. | 1.74 | 0/18 |
| 32 | Q27I+S33D+R34T+W56M | n.d. / n.d. / n.d. / n.d. / n.d. / n.d. | n.d. | 0/18 |
| 33 | V29F+Y31Q+K36D+W56G | 0.61 / 1.05 / -0.07 / 0.30 / 0.67 / 0.57 | 0.52 | 0/18 |
| 34 | R34S+S62R | 2.01 / 1.26 / 2.08 / 3.04 / 1.61 / 2.28 | 2.05 | 2/18 (2.32) |
| 35 | S26G+R34T+A57M | n.d. / n.d. / n.d. / n.d. / n.d. / n.d. | n.d. | 0/18 |
| 36 | L30D+S33L+Q95Y | n.d. / 1.35 / 1.81 / 2.79 / n.d. / 2.11 | 2.01 | 0/18 |
| 37 | S28A+L30P | 2.30 / 2.18 / 1.59 / 2.51 / 3.65 / 1.91 | 2.36 | 0/18 |
| 38 | S25W+Q27T | n.d. / 1.94 / 1.97 / 1.10 / 2.76 / 2.54 | 2.06 | 0/18 |
| 39 | Q27T+W56S+Q96S | 0.65 / 0.15 / -0.05 / 0.18 / 0.07 / 0.07 | 0.18 | 0/18 |

From the list, the first 3 with no signal in any replicate:

changes	replicates, log10 nM	mean, log10 nM	signal with controls
S28G+L30G+S38M	n.d. / n.d. / n.d. / n.d. / n.d. / n.d.	n.d.	1/18 (1.90)
Y31H+E32D+Q96L	n.d. / n.d. / n.d. / n.d. / n.d. / n.d.	n.d.	1/18 (1.69)
S25F+N35E	n.d. / n.d. / n.d. / n.d. / n.d. / n.d.	n.d.	0/18